Paper PMC5101583, “Natural and non-natural amino-acid side-chain substitutions: affinity and diffraction studies of meditope–Fab complexes” (Acta Crystallographica. Section F, Structural Biology …, 2016)

Target: cetuximab
Experiment: Surface plasmon resonance (Biacore T100) binding kinetics of meditope variants to immobilized cetuximab IgG
[1] = SPR, approximate value (k a and/or k d are outside the measurement range for the Biacore T100)

With `CC(C)C[C@@H]1NC(=O)[C@H](CCCNC(=N)N)NC(=O)[C@H](CCCNC(=N)N)NC(=O)[C@H]([C@@H](C)O)NC(=O)[C@H](CO)NC(=O)[C@H](CC(C)C)NC(=O)[C@H](CC(=O)O)NC(=O)[C@H](Cc2c[nH]cn2)NC(=O)[C@H](CCC(N)=O)NC(=O)[C@@H](N)CSSC[C@@H](C(=O)O)NC(=O)[C@H](CCCCN)NC1=O` [F3H] the Kd [1] was greater than 50 µM.
`CC(C)C[C@@H]1NC(=O)[C@H](CCCNC(=N)N)NC(=O)[C@H](CCCNC(=N)N)NC(=O)[C@H]([C@@H](C)O)NC(=O)[C@H](CO)NC(=O)[C@H](CC(C)C)NC(=O)[C@H](CC(=O)O)NC(=O)[C@H](CCC(N)=O)NC(=O)[C@H](CCC(N)=O)NC(=O)[C@@H](N)CSSC[C@@H](C(=O)O)NC(=O)[C@H](CCCCN)NC1=O` [F3Q] gave a Kd [1] greater than 50 µM.
In the case of `CC(C)C[C@@H]1NC(=O)[C@H](CCCNC(=N)N)NC(=O)[C@H](CCCNC(=N)N)NC(=O)[C@H]([C@@H](C)O)NC(=O)[C@H](CO)NC(=O)[C@H](C(c2ccccc2)c2ccccc2)NC(=O)[C@H](CC(=O)O)NC(=O)[C@H](Cc2ccccc2)NC(=O)[C@H](CCC(N)=O)NC(=O)[C@@H](N)CSSC[C@@H](C(=O)O)NC(=O)[C@H](CCCCN)NC1=O` [L5A(Ph)2], the “off-rate relative to that of the original meditope (times faster)” value (SPR k d relative to cQFD) is reported as “approximately fivefold”, the k a (SPR, Biacore T100, cetuximab IgG amine-coupled on CM5 chip (~5000 RU), 30 µl min^−1, HBS-EP+ pH 7.4) is reported as 13 M^−1 s^−1 × 10^4 and the k d (SPR, Biacore T100, cetuximab IgG on CM5 chip, HBS-EP+ pH 7.4) is reported as 0.068 s⁻¹. The Kd (SPR, Biacore T100, cetuximab IgG on CM5 chip, HBS-EP+ pH 7.4, kinetic fit, estimated 38% error in K d) was 0.53 µM and the “reduction of the half-life of the complex” value (t = ln(2)/k d, relative to original meditope) was “approximately fivefold”.
Work on `CC(C)C[C@@H]1NC(=O)[C@H](CCCNC(=N)N)NC(=O)[C@H](CCCNC(=N)N)NC(=O)[C@H]([C@@H](C)O)NC(=O)[C@H](CO)NC(=O)[C@H](Cc2ccc(O)cc2)NC(=O)[C@H](CC(=O)O)NC(=O)[C@H](Cc2ccccc2)NC(=O)[C@H](CCC(N)=O)NC(=O)[C@@H](N)CSSC[C@@H](C(=O)O)NC(=O)[C@H](CCCCN)NC1=O` [L5Y] yielded a Kd [1] greater than 50 µM.
